Measured values as given in patent US8975232B2, “Macrocyclic kinase inhibitors and uses thereof” (President and Fellows of Harvard College, priority 2010, dated 2015).

Protein sequences, listed by entry. Tags and fused reporters are not part of them.
UniProt P12931, whole entry: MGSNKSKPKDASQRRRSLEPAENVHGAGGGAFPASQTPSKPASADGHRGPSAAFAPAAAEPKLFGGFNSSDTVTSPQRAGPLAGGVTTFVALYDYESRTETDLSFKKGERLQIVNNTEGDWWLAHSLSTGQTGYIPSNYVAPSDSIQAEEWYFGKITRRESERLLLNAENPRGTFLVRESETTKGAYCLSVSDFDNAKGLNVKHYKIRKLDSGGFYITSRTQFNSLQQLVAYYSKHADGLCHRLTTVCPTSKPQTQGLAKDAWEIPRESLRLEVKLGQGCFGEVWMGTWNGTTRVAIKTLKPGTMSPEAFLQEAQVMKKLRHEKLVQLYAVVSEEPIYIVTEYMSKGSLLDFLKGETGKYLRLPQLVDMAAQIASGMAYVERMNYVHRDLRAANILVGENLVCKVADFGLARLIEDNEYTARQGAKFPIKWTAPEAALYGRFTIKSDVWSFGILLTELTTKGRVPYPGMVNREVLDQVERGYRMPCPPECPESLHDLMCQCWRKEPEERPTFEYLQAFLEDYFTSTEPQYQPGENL

Molecular target: Src kinase (Homo sapiens, UniProt P12931)
Experiment: Z'-LYTE kinase assay (Invitrogen), Src
Assay type: biochemical
Conditions: read-out: Src IC50, ATP near KM

- IC50: > 100 µM
Structure (SMILES): CS(=O)(=O)CCC1NC(=O)C(Cc2ccco2)NC(=O)C(CC2CC2)NC(=O)/C=C\C(=O)NC(C(N)=O)CCNC1=O (stereo not shown)
